Literature values in patent publication US7776572B2, “Method for reducing loss of enzyme activity during storage” (Corning Incorporated, priority 1996, dated 2010).

Tested on: rat
Conditions: cited from earlier work

Substance	LD50 [grams/Kg]
PEO(4) SORBITOL MONO-LAURATE	>38
PEO(20) SORBITOL TRI-STEARATE	>39
SORBITOL MONO-STEARATE	>15
SORBITOL TRI-STEARATE	>15
